Experimental findings from PubChem BioAssay AID1259370 (Center for Chemical Genomics, University of Michigan, 2018) are described below.

Protein sequences, listed by entry. Tags and fused reporters are not part of them. Lines headed by an entry give the natural chain unless they say otherwise; changes in a name come on top.
UniProt P30305: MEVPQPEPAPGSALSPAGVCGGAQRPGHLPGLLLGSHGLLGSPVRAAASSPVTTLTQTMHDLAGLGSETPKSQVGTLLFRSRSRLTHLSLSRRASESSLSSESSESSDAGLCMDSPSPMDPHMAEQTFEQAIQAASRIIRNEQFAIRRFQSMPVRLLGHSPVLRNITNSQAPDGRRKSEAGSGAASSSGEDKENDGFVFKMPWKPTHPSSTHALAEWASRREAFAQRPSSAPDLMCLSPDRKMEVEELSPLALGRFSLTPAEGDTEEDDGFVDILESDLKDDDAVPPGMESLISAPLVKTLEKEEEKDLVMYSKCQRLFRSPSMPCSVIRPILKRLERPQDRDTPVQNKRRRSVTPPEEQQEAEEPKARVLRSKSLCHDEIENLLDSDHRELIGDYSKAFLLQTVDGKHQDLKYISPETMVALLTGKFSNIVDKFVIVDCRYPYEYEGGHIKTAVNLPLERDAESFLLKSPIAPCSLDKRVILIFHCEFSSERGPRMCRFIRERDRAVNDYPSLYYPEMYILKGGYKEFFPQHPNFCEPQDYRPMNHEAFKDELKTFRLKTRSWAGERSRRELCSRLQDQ
UniProt P20248, whole entry, looked up: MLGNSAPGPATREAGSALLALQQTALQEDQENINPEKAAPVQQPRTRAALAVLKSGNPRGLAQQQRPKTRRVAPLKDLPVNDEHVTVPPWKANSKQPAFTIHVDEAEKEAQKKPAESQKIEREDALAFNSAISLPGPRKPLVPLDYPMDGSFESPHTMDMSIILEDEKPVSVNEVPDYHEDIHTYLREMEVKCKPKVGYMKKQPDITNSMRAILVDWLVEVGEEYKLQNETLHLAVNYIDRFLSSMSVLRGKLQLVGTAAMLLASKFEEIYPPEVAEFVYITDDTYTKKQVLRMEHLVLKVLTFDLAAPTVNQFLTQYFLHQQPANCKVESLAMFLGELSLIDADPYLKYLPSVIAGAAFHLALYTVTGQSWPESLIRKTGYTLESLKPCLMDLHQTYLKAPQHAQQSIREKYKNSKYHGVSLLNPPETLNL

Structures are written as SMILES. This is a selection; strong and weak results do not stand in their true shares. Active and inactive are the calls of the source. Rule as the data show it: active = z-score above about 3.2; inactive = the rest.

The target in this experiment is M-phase inducer phosphatase 2 (Homo sapiens) + Cyclin-dependent kinase 2 (Homo sapiens) + Cyclin-A2 (Homo sapiens) (UniProt P30305+P24941+P20248). In words: primary biochemical HTRF screen for inhibition of M-phase inducer phosphatase 2 binding to cyclin-dependent kinase 2/cyclin A (AID 1259370). The settings on record: HTRF CDC25B-CDK2/CyclinA binding, anti-His/anti-Flag; hits give high values. In general terms: Time-resolved FRET reads energy transfer from a long-lived donor to a nearby acceptor.
Consider `CN(C(=O)Cc1ccc(Cl)c(Cl)c1)[C@@H]1CCCC[C@@H]1N1CCCC1`, for which the z-score is active: 3.92.
